Data taken from US11219221B2 (FarmHannong Co., Ltd., priority 2017, dated 2022).

Columns and labels:
[1] = target: Thermosynechococcus sp. NK55a PPO CyPPO17 (SEQ ID NO: 3) variant V164C (MBP fusion); experiment: PPO enzyme inhibition (IC50), MBP-fused PPO; assay type: biochemical; conditions: 50 μM protoporphyrinogen IX, pH 8.0, room temperature, 30 min
Protocol: (§1) Thus, PPO proteins of wild type and variants were expressed as fused to MBP and were used for experiments.
(§2) The following process for purification of PPO protein was performed in a 4° C. cold room. Amylose resin (NEB) was packed to 1.5×15 cm column (Bio-Rad, Econo Columns 1.5×15 cm, glass chromatography column, max. vol), and the obtained protein extracts were loaded to the column at a flow rate of 0.2 ml/min. The column was washed with 3 column volumes of buffer and the presence of protein in the washing solution was examined. When the protein was no longer detected, the washing procedure was terminated. Then, the MBP-PPO protein was eluted with approximately 2 column volumes of buffer containing 20 mM maltose. The protein concentration of each eluent was determined and the elution was stopped when the protein was no longer detected. Ten microliter of each fraction was investigated for protein quantification and SDS-PAGE analysis. […]
(§3) Hundred and eighty microliters of a reaction mixture containing the purified PPO protein were placed in 96 well plates and 20 μl of […] were added. […] The reaction proceeded at room temperature for 30 min and the fluorescence of protoporphyrin IX was measured using Microplate reader (Sense, Hidex) (excitation: 405 nm; emission: 633 nm). […] To this, 2.7 N HCl was added, and the absorbance at 408 nm was measured. […]

[2] = target: Thermosynechococcus sp. NK55a PPO CyPPO17 (SEQ ID NO: 3) variant A166L (MBP fusion); experiment: PPO enzyme inhibition (IC50), MBP-fused PPO; assay type: biochemical; conditions: 50 μM protoporphyrinogen IX, pH 8.0, room temperature, 30 min
Protocol: as §1, §2, §3

[3] = system: wild type A. thaliana (Col-0 ecotype); experiment: Herbicide spray test on Arabidopsis; assay type: in vivo, Arabidopsis thaliana; conditions: 1 μM spray (100 ml, 0.24 m^2), within 7 days, 4-week-old plants

**Q.** For C#CCN1C(=O)COc2cc(F)c(N3C(=O)C4=C(CCCC4)C3=O)cc21 [flumioxazin], which IC50 [1] is on record?
**A.** Its IC50 is 58 nM.

**Q.** For Cc1nn(-c2cc(NS(C)(=O)=O)c(Cl)cc2Cl)c(=O)n1C(F)F [sulfentrazone], which IC50 [2] is on record?
**A.** Its IC50 is greater than 10000 nM.

**Q.** How did the “Plant death after herbicide spray” value [3] turn out when COC(=O)CCNC(=O)C(C)Sc1cc(-n2c(=O)cc(C(F)(F)F)n(C)c2=O)c(F)cc1Cl (stereo not drawn) [tiafenacil] was run?
**A.** Its value is “completely died”.
